Results on 51 molecules are retold here after published antibiotic growth screens (doi:10.1038/s41589-023-01349-8).

The other results are listed elsewhere or left out.

The test system of this assay is A. baumannii ATCC 17978. Put plainly: relative growth (fraction of control); higher = less inhibition. The note with it: 50 µM.
`COCCc1nc2c(c(=O)n(C)c(=O)n2C)n1C` showed a relative growth of 0.941. With `Cc1cn2c(=O)c(C(=O)O)cnc2s1` the figure was 1.1; with `COc1ccc(S(N)(=O)=O)cc1OC`, 1.02; with `N=C1NCCC(C2NC(=O)/C(=C\NC(N)=O)NC(=O)C(CNC(=O)CC(N)CCCN)NC(=O)C(CO)NC(=O)C(N)CNC2=O)N1.O=S(=O)(O)O` (stereo unspecified), 0.88.

`COc1ccc(C#Cc2ccc3c(c2)[C@]2(C(=O)N3)[C@H](C(=O)N3CCc4cc(OC)c(OC)cc4C3)[C@H]3C(=O)O[C@H](c4ccccc4)[C@H](c4ccccc4)N3[C@@H]2c2ccc(O)cc2)cc1` returned a relative growth of 0.863. With `O=C1CCN(c2ccccc2)N1` the figure was 1.03; with `COc1ccc(S(=O)(=O)N2C[C@H](O)COC[C@@H]3O[C@H](CC(=O)NCc4ccc(Cl)c(Cl)c4)CC[C@H]32)cc1`, 0.823. With `CCCCC/C=C/CCC(=O)N[C@H]1[C@H](Oc2c3cc4cc2Oc2ccc(cc2Cl)[C@@H](O[C@@H]2O[C@H](CO)[C@@H](O)[C@H](O)[C@H]2NC(C)=O)[C@@H]2NC(=O)[C@H](NC(=O)[C@@H]4NC(=O)[C@H]4NC(=O)C(Cc5ccc(c(Cl)c5)O3)NC(=O)[C@H](N)c3ccc(O)c(c3)Oc3cc(O)cc4c3)c3ccc(O)c(c3)-c3c(OC4O[C@H](CO)[C@@H](O)[C@H](O)[C@@H]4O)cc(O)cc3[C@@H](C(=O)O)NC2=O)O[C@H](CO)[C@@H](O)[C@@H]1O` (stereo partly specified) [TEICOPLANIN [A(2-1) shown]] the figure was 0.834. With `[O-][n+]1cccc(CO)c1` the figure was 0.957; with `CCS(=O)(=O)NCC[C@@H]1CC[C@@H](NS(=O)(=O)c2ccccc2C)[C@H](CO)O1`, 0.864.

The molecule `O=c1c(O)c(-c2ccccc2)oc2cccc(O)c12` registered a relative growth of 1.07. With `C[C@]12CCC3c4ccc(O)cc4CCC3C1CC[C@@H]2O` (stereo partly specified) the figure was 0.945; with `Cl.Cl.O=C(O)COCCN1CCN(C(c2ccccc2)c2ccc(Cl)cc2)CC1` (stereo unspecified), 1.42; with `Cc1ccnc(NS(=O)(=O)c2ccc(N)cc2)n1`, 1.08. With `Cc1cccc(NC(=O)C(C)C)c1` the figure was 0.865. With `COc1ccc(NC(=O)N2C[C@@H](O)COC[C@@H]3O[C@H](CC(=O)NC4Cc5ccccc5C4)CC[C@H]32)cc1` the figure was 0.899. Consider `C[C@H](CO)N1C[C@H](C)[C@H](CN(C)C(=O)Cc2ccccn2)Oc2cc(-c3ccc(C(=O)N(C)C)cc3)ccc2S1(=O)=O`, for which the relative growth stood at 1.05. In the case of `Nc1cc(-c2ccccc2)ccc1O`, the relative growth amounted to 1.06. Turning to `C/C1=C/CC(C)(C)/C=C/C/C(C)=C/CC1` [HUMULENE (alpha)], the relative growth worked out at 1.04.

For the molecule `CCS(=O)(=O)NCC[C@H]1CC[C@@H](NS(=O)(=O)c2ccccc2C)[C@@H](CO)O1`, the relative growth was determined as 1. With `CC(C)(C)c1ccc(C(=O)CCCN2CCC(OC(c3ccccc3)c3ccccc3)CC2)cc1` the figure was 1.01. With `C(=N\C1CCCCCCCCCCC1)/c1ccco1` the figure was 0.779; with `Cn1cnc(S(=O)(=O)N2C[C@@H](O)COC[C@H]3O[C@@H](CC(=O)NC4Cc5ccccc5C4)CC[C@@H]32)c1`, 0.937. Regarding `O=c1ccn([C@@H]2O[C@H](CO)[C@@H](O)[C@H]2O)c(=O)[nH]1`, the relative growth was determined as 0.899. `Cl.NC12CC3CC(CC(C3)C1)C2` returned a relative growth of 1.19. As for `COc1cc2c(cc1OC)[C@@]13ON=C(c4ccc(OCCOC(=O)NCCCCCC(=O)NO)cc4)[C@@H]1CCN3CC2`, the relative growth was 0.999. With `O=c1c(O)c(-c2ccc(O)cc2)oc2ccccc12` the figure was 1.26. With `COC(=O)C1=C2CC[C@H](COC(=O)NCCCCCC(=O)NO)NC(=O)N[C@H](Cc3ccccc3)c3cn(nn3)C[C@@H](Cc3ccccc3)NC(=O)c3oc(c(C(=O)OC)c3C(=O)OC)CC[C@H](COC(=O)NCCCCCC(=O)NO)NC(=O)N[C@H](Cc3ccccc3)c3cn(nn3)C[C@@H](Cc3ccccc3)NC(=O)C(=C1C(=O)OC)O2` the figure was 1; with `CN(C)CC(=O)N[C@@H]1CC[C@H](CCNC(=O)C2CC2)O[C@@H]1CO`, 1.06. With `CCCCNc1cc(C(=O)O)cc(S(N)(=O)=O)c1Oc1ccccc1` the figure was 0.972; with `CC(C)(C)[S@](=O)N1Cc2cc(C(=O)N3CCCCC3)nc(-c3cccc(-c4cccc(C#N)c4)c3)c2[C@@H]1CCO`, 1.07; with `Cc1ccc(S(=O)(=O)N[C@H]2CC[C@H](CC(=O)N3CCC(Cc4ccccc4)CC3)O[C@H]2CO)cc1`, 0.714. `C[C@H](Cn1cnc2c(N)ncnc21)OCP(=O)(O)O` showed a relative growth of 0.919. With `O=C(O)CNC(=O)c1ccc(S(=O)(=O)N2CCOCC2)cc1` the figure was 1.04. With `COc1cccc2c1C(=O)c1c(O)c3c(c(O)c1C2=O)C[C@@](O)(C(=O)CO)C[C@@H]3OC1C[C@H](N)[C@H](O)[C@H](C)O1` (stereo partly specified) the figure was 0.97. Consider `COCC(=O)N(C)C[C@H]1Oc2cc(C#C[C@H](C)O)ccc2S(=O)(=O)N([C@H](C)CO)C[C@@H]1C`, for which the relative growth turned out to be 1. With `CN(C)/C=N/[C@@H]1N=C(C2CC2)N(C)C(=O)N1` the figure was 0.901; with `CN(C)C(=O)C[C@H]1C=C[C@@H](NC(=O)C2CCOCC2)[C@H](CO)O1`, 0.923. With `CCOC(=O)[C@@H](N)Cc1ccccc1` the figure was 0.982; with `C#Cc1ccc([C@H]2C=C(C(=O)N3CCN(Cc4ccc5c(c4)OCO5)CC3)O[C@@H](OCC)[C@@H]2CCCO)cc1`, 0.798; with `CCS(=O)(=O)NCC[C@H]1CC[C@H](NC(=O)C2CC2)[C@H](CO)O1`, 1.08. With `Nc1c2c(=O)[nH]c(=O)cc-2[nH]n1-c1ccccc1` the figure was 1.06. As for `CCOC(=O)c1c(C)oc(N)c1C(N)=O`, the relative growth worked out at 1.01. With `c1ccc(-c2cc(-c3ccccc3)n(-c3ccccc3)n2)cc1` the figure was 1.15; with `CN(C)C(=O)C[C@H]1CC[C@H](NC(=O)C2CCOCC2)[C@@H](CO)O1`, 1.08; with `CCCCCCC#C[Si](O[C@H](c1ccccc1)c1cn(Cc2cccc(Cl)c2)nn1)(C(C)C)C(C)C`, 1.05. With `CC(=O)OCC(=O)NCCCOc1cccc(CN2CCCCC2)c1.Cl` the figure was 0.979. With `CCOC(=O)c1c(C)cc(O)c(C=O)c1O` the figure was 0.832; with `CCC[C@@H]1C[C@@H](C(=O)N[C@@H](C2O[C@H](SC)[C@H](O)[C@@H](O)[C@H]2O)[C@H](C)Cl)N(C)C1.Cl` (stereo partly specified), 0.489. `NCC[C@H]1CC[C@H](NC(=O)c2ccccc2F)[C@H](CO)O1` yielded a relative growth of 1.21. In turn, `CC(C)NC(=O)N[C@H]1C=C[C@H](CC(=O)O)O[C@H]1CO` yielded a relative growth of 1.06.
